Values of other authors as cited in patent US11236147B2, “Methods and compositions for the inhibition of TRPV4” (CHILDREN'S MEDICAL CENTER CORPORATION, priority 2013, dated 2022).

Amino acid sequences for entries named in this document (tags omitted).
UniProt Q9HBA0, whole entry: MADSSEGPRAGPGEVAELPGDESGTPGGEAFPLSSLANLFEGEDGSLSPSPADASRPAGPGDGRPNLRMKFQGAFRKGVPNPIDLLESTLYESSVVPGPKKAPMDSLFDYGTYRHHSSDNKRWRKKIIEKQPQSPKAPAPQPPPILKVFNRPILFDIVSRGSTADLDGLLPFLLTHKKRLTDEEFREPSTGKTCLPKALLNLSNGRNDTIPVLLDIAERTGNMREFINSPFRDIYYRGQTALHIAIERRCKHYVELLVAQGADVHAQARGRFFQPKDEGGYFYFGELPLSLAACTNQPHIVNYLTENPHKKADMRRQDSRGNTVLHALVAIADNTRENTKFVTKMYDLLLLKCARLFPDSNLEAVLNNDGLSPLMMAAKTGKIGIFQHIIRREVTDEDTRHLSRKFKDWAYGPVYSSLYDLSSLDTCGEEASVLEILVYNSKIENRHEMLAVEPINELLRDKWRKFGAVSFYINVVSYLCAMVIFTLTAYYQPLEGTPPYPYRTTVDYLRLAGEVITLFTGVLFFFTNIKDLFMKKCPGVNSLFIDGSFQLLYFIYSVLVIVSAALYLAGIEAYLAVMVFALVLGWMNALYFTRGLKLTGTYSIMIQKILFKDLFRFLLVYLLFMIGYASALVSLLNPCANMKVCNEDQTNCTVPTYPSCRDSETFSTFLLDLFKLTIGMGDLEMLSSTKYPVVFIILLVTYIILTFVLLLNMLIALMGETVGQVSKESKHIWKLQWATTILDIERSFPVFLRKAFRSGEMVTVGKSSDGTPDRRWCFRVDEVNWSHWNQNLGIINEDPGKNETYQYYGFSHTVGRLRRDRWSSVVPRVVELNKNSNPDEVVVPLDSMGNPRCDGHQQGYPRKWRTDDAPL

Target: T1, TRPV4 (Homo sapiens, UniProt Q9HBA0)
T1 construct: Transient increases in intracellular calcium were detected quickly after force application in HUVE cells treated with control siRNA; endogenous in cells; host or cells: HUVE cells (ATCC) treated with control or CD98 siRNA
Details: human lung-on-a-chip, in vitro; cited from earlier work

IL2: inducer of pulmonary edema in the lung-on-a-chip model
clinical manifestations of pulmonary edema (vascular leakage, fibrin clot formation, compromised oxygen transport): produces clinical manifestations of pulmonary edema
